Results taken from PubChem BioAssay (NCI).
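Values below derive from 48-hour exposures of cells grown in 96-well plates, with endpoints linearly interpolated between the two concentrations bracketing the appropriate inhibition level. GI50 marks 50% less growth. TGI: concentration producing complete growth inhibition.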

How the values were obtained:
Assay in all cases: NCI tumour cell line growth inhibition, 48 h; in the data active = GI50 below about 0.43 µM; inactive = the rest
[1] = system: 786-0 renal
[2] = system: A498 renal
[3] = system: A549 NSCLC
[4] = system: ACHN renal
[5] = system: BT-549 breast
[6] = system: CAKI-1 renal
[7] = system: CCRF-CEM leukemia
[8] = system: COLO 205 colon
[9] = system: DU-145 prostate
[10] = system: EKVX NSCLC
[11] = system: HCC-2998 colon
[12] = system: HCT-116 colon
[13] = system: HL-60(TB) leukemia
[14] = system: HOP-62 NSCLC
[15] = system: HOP-92 NSCLC
[16] = system: HS 578T breast
[17] = system: HT29 colon
[18] = system: IGROV1 ovarian
[19] = system: K-562 leukemia
[20] = system: KM12 colon
[21] = system: LOX IMVI melanoma
[22] = system: M14 melanoma
[23] = system: MALME-3M melanoma
[24] = system: MCF7 breast
[25] = system: MDA-MB-231 breast
[26] = system: MDA-MB-435
[27] = system: MDA-N
[28] = system: MOLT-4 leukemia
[29] = system: NCI-H226 lung
[30] = system: NCI-H23 lung
[31] = system: NCI-H322M lung
[32] = system: NCI-H460 lung
[33] = system: NCI-H522 lung
[34] = system: OVCAR-3 ovarian
[35] = system: OVCAR-4 ovarian
[36] = system: OVCAR-5 ovarian
[37] = system: PC-3 prostate
[38] = system: RPMI-8226 leukemia
[39] = system: RXF 393 renal
[40] = system: SF-268 CNS
[41] = system: SF-295 CNS
[42] = system: SK-MEL-2 melanoma
[43] = system: SK-MEL-5 melanoma
[44] = system: SK-OV-3 ovarian
[45] = system: SN12C renal
[46] = system: SNB-19 CNS
[47] = system: SR leukemia
[48] = system: SW-620 colon
[49] = system: T-47D breast
[50] = system: TK-10 renal
[51] = system: U251 CNS
[52] = system: UACC-257 melanoma
[53] = system: UACC-62 melanoma
[54] = system: UO-31 renal
[55] = system: HCT-15 colon
[56] = system: NCI/ADR-RES ovarian
[57] = system: OVCAR-8 ovarian
[58] = system: SF-539 CNS
[59] = system: SK-MEL-28 melanoma
[60] = system: SNB-75 CNS

C[Si](C)(C)OC1CCC(c2cc3ccccc3s2)(N2CCCCC2)CC1 (stereo unspecified)
61.9 µM: TGI [30]
49.9 µM: TGI [28]
76.3 µM: TGI [49]
40.2 µM: TGI [11] | TGI [39]
56.1 µM: TGI [22]
92.3 µM: TGI [1]
48 µM: TGI [7]
31.2 µM: TGI [8]
> 100 µM: TGI [2] | TGI [3] | TGI [4] | TGI [6] | TGI [9] | TGI [10] | TGI [12] | TGI [14] | TGI [15] | TGI [16] | TGI [17] | TGI [18] | TGI [19] | TGI [20] | TGI [23] | TGI [24] | TGI [25] | TGI [27] | TGI [31] | TGI [32] | TGI [34] | TGI [35] | TGI [36] | TGI [37] | TGI [40] | TGI [41] | TGI [42] | TGI [44] | TGI [46] | TGI [48] | TGI [50] | TGI [51] | TGI [52] | TGI [53] | TGI [54]
25.1 µM: TGI [21]
72.8 µM: TGI [38]
45.1 µM: TGI [13]
50.5 µM: TGI [33]
71.9 µM: TGI [5]
67.2 µM: TGI [45]
52.1 µM: TGI [47]
29.8 µM: TGI [43]
97.7 µM: TGI [26]
67.1 µM: TGI [29]

COP1OCC2CCC[C@@H]2O1 (stereo partly specified)
inactive: GI50 [1] > 100 µM | GI50 [2] > 100 µM | GI50 [3] > 100 µM | GI50 [4] > 100 µM | GI50 [5] > 100 µM | GI50 [6] > 100 µM | GI50 [7] > 100 µM | GI50 [8] > 100 µM | GI50 [9] > 100 µM | GI50 [11] > 100 µM | GI50 [12] > 100 µM | GI50 [55] > 100 µM | GI50 [13] > 100 µM | GI50 [15] > 100 µM | GI50 [17] > 100 µM | GI50 [18] > 100 µM | GI50 [19] > 100 µM | GI50 [20] > 100 µM | GI50 [22] > 100 µM | GI50 [23] > 100 µM | GI50 [25] > 100 µM | GI50 [26] > 100 µM | GI50 [27] > 100 µM | GI50 [28] > 100 µM | GI50 [29] > 100 µM | GI50 [30] > 100 µM | GI50 [32] > 100 µM | GI50 [33] > 100 µM | GI50 [56] > 100 µM | GI50 [34] > 100 µM | GI50 [35] > 100 µM | GI50 [36] > 100 µM | GI50 [57] > 100 µM | GI50 [37] > 100 µM | GI50 [38] > 100 µM | GI50 [39] > 100 µM | GI50 [40] > 100 µM | GI50 [41] > 100 µM | GI50 [58] > 100 µM | GI50 [42] > 100 µM | GI50 [59] > 100 µM | GI50 [43] > 100 µM | GI50 [45] > 100 µM | GI50 [46] > 100 µM | GI50 [60] > 100 µM | GI50 [47] > 100 µM | GI50 [48] > 100 µM | GI50 [49] > 100 µM | GI50 [50] > 100 µM | GI50 [51] > 100 µM | GI50 [52] > 100 µM | GI50 [53] > 100 µM | GI50 [54] > 100 µM
> 100 µM: TGI [1] | TGI [2] | TGI [3] | TGI [4] | TGI [5] | TGI [6] | TGI [7] | TGI [8] | TGI [9] | TGI [11] | TGI [12] | TGI [55] | TGI [13] | TGI [15] | TGI [17] | TGI [18] | TGI [19] | TGI [20] | TGI [22] | TGI [23] | TGI [25] | TGI [26] | TGI [27] | TGI [28] | TGI [29] | TGI [30] | TGI [32] | TGI [33] | TGI [56] | TGI [34] | TGI [35] | TGI [36] | TGI [57] | TGI [37] | TGI [38] | TGI [39] | TGI [40] | TGI [41] | TGI [58] | TGI [42] | TGI [59] | TGI [43] | TGI [45] | TGI [46] | TGI [60] | TGI [47] | TGI [48] | TGI [49] | TGI [50] | TGI [51] | TGI [52] | TGI [53] | TGI [54]

Fc1ccc(NC2=NCC(CI)S2)c(F)c1 (stereo unspecified)
inactive: GI50 [1] > 100 µM | GI50 [3] > 100 µM | GI50 [4] > 100 µM | GI50 [5] > 100 µM | GI50 [6] 50.4 µM | GI50 [7] 24.4 µM | GI50 [8] > 100 µM | GI50 [9] > 100 µM | GI50 [10] > 100 µM | GI50 [11] > 100 µM | GI50 [12] > 100 µM | GI50 [55] > 100 µM | GI50 [13] 18.4 µM | GI50 [14] > 100 µM | GI50 [15] 37 µM | GI50 [16] > 100 µM | GI50 [17] > 100 µM | GI50 [18] > 100 µM | GI50 [19] 90 µM | GI50 [20] > 100 µM | GI50 [21] 51.7 µM | GI50 [22] > 100 µM | GI50 [23] > 100 µM | GI50 [24] > 100 µM | GI50 [25] > 100 µM | GI50 [26] > 100 µM | GI50 [27] > 100 µM | GI50 [28] 28.5 µM | GI50 [29] > 100 µM | GI50 [30] > 100 µM | GI50 [31] > 100 µM | GI50 [33] > 100 µM | GI50 [56] > 100 µM | GI50 [34] > 100 µM | GI50 [35] > 100 µM | GI50 [36] > 100 µM | GI50 [57] > 100 µM | GI50 [37] > 100 µM | GI50 [38] > 100 µM | GI50 [39] > 100 µM | GI50 [40] > 100 µM | GI50 [41] > 100 µM | GI50 [58] > 100 µM | GI50 [42] > 100 µM | GI50 [59] > 100 µM | GI50 [43] > 100 µM | GI50 [44] > 100 µM | GI50 [45] > 100 µM | GI50 [46] > 100 µM | GI50 [60] > 100 µM | GI50 [47] 16.4 µM | GI50 [48] > 100 µM | GI50 [49] > 100 µM | GI50 [50] > 100 µM | GI50 [51] > 100 µM | GI50 [52] > 100 µM | GI50 [53] > 100 µM | GI50 [54] > 100 µM
> 100 µM: TGI [1] | TGI [3] | TGI [4] | TGI [5] | TGI [6] | TGI [8] | TGI [9] | TGI [10] | TGI [11] | TGI [12] | TGI [55] | TGI [14] | TGI [15] | TGI [16] | TGI [17] | TGI [18] | TGI [19] | TGI [20] | TGI [21] | TGI [22] | TGI [23] | TGI [24] | TGI [25] | TGI [26] | TGI [27] | TGI [29] | TGI [30] | TGI [31] | TGI [33] | TGI [56] | TGI [34] | TGI [35] | TGI [36] | TGI [57] | TGI [37] | TGI [38] | TGI [39] | TGI [40] | TGI [41] | TGI [58] | TGI [42] | TGI [59] | TGI [43] | TGI [44] | TGI [45] | TGI [46] | TGI [60] | TGI [48] | TGI [49] | TGI [50] | TGI [51] | TGI [52] | TGI [53] | TGI [54]
84.8 µM: TGI [28]
47.1 µM: TGI [47]
42.3 µM: TGI [13]
55.2 µM: TGI [7]
